Literature values as cited in US20250194589A1 (published 2025).

Details: 25° C.

Emamectin benzoate
Degree of water-solubility: 24 µg/mL
